Experimental data: patent publication US9796732B2, “Pyridopyrimidine or pyrimidopyrimidine compound, prepration method, pharmaceutical composition, and use thereof” (Shanghai Institute of Materia Medica, Chinese Academy of …, priority 2013, dated 2017)

Key:
human brain glioma U87MG = assay: Cell proliferation assay (MTS), U87MG; format: cell-based; settings: U-87 MG, 72 h, read-out: U87MG IC50 (μM)
Experimental: (§1) Cell proliferation assay was based on two types of cell lines, i.e., human brain glioma U87MG and human prostate cancer LNCap, both of which were from ATCC. U87MG and LNCap contain PTEN gene deletion, and belongs to mTOR signal-dependent tumor cells. Cell culture media and related reagents were from GIBCO. […] Cells/compound was cultured for 3 days, and MTS method was used to test cell proliferation. […] After a suitable time of incubation, the proliferation assay results was recorded on a 96 well plate microplate reader.
(§2) The experimental data were processed with Microsoft Office Excel and Graphpad PRISM 5 to calculate IC50.

[1] = test system: human prostate cancer LNCap; assay: Cell proliferation assay (MTS), LNCap; format: cell-based; settings: 72 h, read-out: LNCap IC50 (μM)
Experimental: as §1, §2

Q: What does the source list for `COc1ccc(-c2cc3nc(N4CCOC[C@@H]4C)nc(N4CCOCC4)c3cn2)cc1CO` [Compound 14, (S)-(2-methoxy-5-(2-(3-methylmorpholinyl-4-morpholinyl)pyrido[4,3-d]pyrimidin-7-yl)phenyl)methanol]?
A: IC50 (human brain glioma U87MG): 11.4 µM; IC50 [1]: 3.37 µM
